One test concerns MV-4-11 leukemic cells. Nature of the test: PrestoBlue combination screening with 6-(4-(tert-butyl)phenoxy)pyridin-3-amine, ZIP synergy analysis. The format is cell-based, Human. To be noted: Drug 2 in combination with 6-(4-(tert-butyl)phenoxy)pyridin-3-amine (Drug 1), 72 hours. As for the experimental part: (§1) Cell lines and drug combinations: Human T-ALL, AML and breast cancer cell lines RPMI-8402, MV-4-11 and HCC1187 were cultured under mycoplasma free conditions at 37° C. in RPMI-1640 media supplemented with 10% FCS (RPMI-8402 and HCC1187 cells) and IMDM media supplemented with 10% FCS (MV-4-11 cells). The kinase inhibitors listed in table 5 were used in combination with 6-(4-(tert-butyl) phenoxy)pyridin-3-amine.
(§2) 6-(4-(tert-butyl) phenoxy)pyridin-3-amine combination screening: Human cancer cells RPMI-8402, MV-4-11 and HCC1187 were seeded at a density of 10′000 cells/well in 96 well plate format and cultured in 100 μl of growth media. […] Concentration range used for each compound was determined based on individual IC50 values i.e concentration range selected flanks IC50 value of each compound. […] PrestoBlue® readout was taken using Sense (Hidex) plate reader.
(§3) PrestoBlue® viability assay: PrestoBlue® proliferation assays were performed to determine the growth kinetics of compound treated cells. […] In metabolically active and proliferating cells, resazurin is converted to resorufin due to an intrinsic reducing power of live cells and produces a red fluorescence. […] Cells were treated in triplicates (single agent) or duplicates (combinations) with pre-determined concentration of compounds as a single agent or in combination with 6-(4-(tert-butyl) phenoxy)pyridin-3-amine for 72 hours. […]

The subject of the next test is RPMI-8402 leukemic cells. The test is described as above. The following applies: Drug 2 in combination with 6-(4-(tert-butyl)phenoxy)pyridin-3-amine (Drug 1), 72 hours. The format is cell-based, Human. As to the method: as §1, §2, §3

The values that follow come from patent publication US20250000870A1, “Pharmaceutical Combinations for Treating Cancer” (Cellestia Biotech AG, priority 2021, published 2025).

As for `CNC(=O)c1ccccc1Sc1ccc2c(/C=C/c3ccccn3)n[nH]c2c1` [Axitinib, N-Methyl-2-[[3-[(E)-2-pyridin-2-ylethenyl]-1H-indazol-6-yl]sulfanyl]benzamide], the ZIP score with MV-4-11 leukemic cells stood at 4.5; in the test on RPMI-8402 leukemic cells it was 35.5.
